# Apparent affinities of Ab-14 variants for a coronavirus HR2 peptide

Values reported by Li et al. 2023, doi:10.1038/s41467-023-39022-2 (FLAb copy).

Binding partner: SARS-CoV-2 spike HR2 peptide, sequence PDVDLGDISGINAS.

The variants keep the light chain, the linker and the frameworks of Ab-14 (scFv order VH, a 15-residue (Gly4Ser)3 linker, VL).
VH: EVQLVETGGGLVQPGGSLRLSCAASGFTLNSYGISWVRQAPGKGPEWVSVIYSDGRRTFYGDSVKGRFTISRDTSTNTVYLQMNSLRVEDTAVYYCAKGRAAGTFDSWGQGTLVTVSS
VL: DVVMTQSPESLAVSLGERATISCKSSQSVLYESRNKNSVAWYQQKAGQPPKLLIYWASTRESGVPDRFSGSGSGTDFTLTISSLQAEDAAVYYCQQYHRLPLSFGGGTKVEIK

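These sequences belong to a second round, designed from the earlier measurements on random variants of the parent. Their group label is 14H_GPLM_Gen (GPLM: also part of the Gaussian process libraries; Gen: genetic algorithm; a sequence that several methods proposed may carry one label only). AlphaSeq pools MATa yeast showing the antibodies with MATalpha yeast showing the peptide. Pairs that bind mate more often; barcode pairs of the diploids are counted by sequencing. A regression on co-assayed BCL2-family reference pairs converts the normalised counts of each replicate to an apparent Kd. The assay was run in six technical replicates.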

Each variant's VH is given in full.
Numbers give log10(Kd / nM), so 0 is 1 nM and 3 is 1 µM. Smaller is tighter.
Replicates are averaged; those with no signal do not enter the mean.
"nd" marks a missing value. The strain was present, yet no cells mated with the target were sequenced in that replicate, which points to weak or no binding.
The range of this assay differs from that of the first round, and the authors advise against merging the two.
The authors averaged sequences with at least three values out of six and counted those with two or fewer as poor binders.
Background: pairings of all heavy chain designs with three empty control strains gave a value in 1% of cases (median 2.08, 5th percentile 0.84). Values in that range, when seen in few replicates, are hard to tell from nonspecific mating. The control count says in how many pairings with the empty strains this scFv gave a signal, with their mean in brackets.

VH | log10 Kd, replicates | log10 Kd (nM), mean | control signals
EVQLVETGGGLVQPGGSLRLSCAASGFTLNEYGISWVRQAPGKGPEWVSVIYSDGRRTFYADSVKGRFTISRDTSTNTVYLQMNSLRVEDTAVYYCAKGRTAGTFDSWGQGTLVTVSS | 0.32 -0.20 0.20 -0.41 0.12 0.02 | 0.01 | 0 of 18
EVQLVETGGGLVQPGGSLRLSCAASGFSLNSYGISWVRQAPGKGPEWVSVIYSDGRRTFYGDSVKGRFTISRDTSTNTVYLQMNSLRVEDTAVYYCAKGRVAGTFDIWGQGTLVTVSS | -0.13 0.24 2.82 0.94 0.60 nd | 0.89 | 0 of 18
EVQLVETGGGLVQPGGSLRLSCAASGFTLNSYGISWVRQAPGKGPEWVSVIYSDGRRTFYSDSVKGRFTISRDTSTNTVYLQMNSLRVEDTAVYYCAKGTAAGTFDSWGQGTLVTVSS | 0.46 0.24 0.57 1.19 0.31 0.89 | 0.61 | 0 of 18
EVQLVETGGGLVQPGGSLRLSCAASGFKLNSYGISWVRQAPGKGPEWVSVIYSDGRRTFYADSVKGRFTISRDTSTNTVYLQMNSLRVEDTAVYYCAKGQTAGTFDSWGQGTLVTVSS | 0.60 nd nd 1.03 1.45 1.09 | 1.04 | 0 of 18
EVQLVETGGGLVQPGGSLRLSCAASGFSLNSYGISWVRQAPGKGPEWVSVIYSDGRRTFYSDSVKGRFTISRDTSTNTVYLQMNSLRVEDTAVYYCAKGRSAGTFDSWGQGTLVTVSS | 0.48 1.21 0.36 0.19 0.31 0.40 | 0.49 | 0 of 18
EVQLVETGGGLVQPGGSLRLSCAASGFSLNQYGISWVRQAPGKGPEWVSVIYSDGRRTFYADSVKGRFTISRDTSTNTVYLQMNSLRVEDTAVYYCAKGRAAGTFDSWGQGTLVTVSS | -0.48 0.20 0.08 -0.05 -0.02 -0.08 | -0.06 | 0 of 18
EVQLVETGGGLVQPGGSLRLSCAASGFTLNSYGISWVRQAPGKGPEWVSVIYSDGRRTFYADDVKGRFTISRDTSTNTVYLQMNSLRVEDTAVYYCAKGRTAGTFDSWGQGTLVTVSS | 0.12 0.26 0.20 0.41 -0.38 0.07 | 0.11 | 0 of 18
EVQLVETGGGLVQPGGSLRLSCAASGFTLNSYGISWVRQAPGKGPEWVSVIYSDGRRTFYTDSVKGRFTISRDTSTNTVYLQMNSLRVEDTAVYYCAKGQLAGTFDSWGQGTLVTVSS | 0.79 1.28 1.52 0.38 1.13 1.25 | 1.06 | 1 of 18 (1.46)
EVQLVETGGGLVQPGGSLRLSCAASGFSLNEYGISWVRQAPGKGPEWVSVIYSDGRRTFYADSVKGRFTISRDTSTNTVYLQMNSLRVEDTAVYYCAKGRLAGTFDSWGQGTLVTVSS | -0.39 -0.16 -0.66 -0.81 -0.89 -0.81 | -0.62 | 0 of 18
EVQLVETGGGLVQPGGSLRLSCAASGFSLNSYGISWVRQAPGKGPEWVSVIYSDGRRTFYADSVKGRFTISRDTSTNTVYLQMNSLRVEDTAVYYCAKGKIAGTFDSWGQGTLVTVSS | 0.48 0.53 0.56 0.53 0.45 0.49 | 0.51 | 1 of 18 (2.65)
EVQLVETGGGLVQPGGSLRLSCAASGFSLNNYGISWVRQAPGKGPEWVSVIYSDGRRTFYIDSVKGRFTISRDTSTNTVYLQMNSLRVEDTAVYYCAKGRAAGTFDSWGQGTLVTVSS | 0.84 1.29 0.87 0.77 1.02 0.71 | 0.92 | 0 of 18
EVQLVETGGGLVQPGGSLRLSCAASGFSLNSYGISWVRQAPGKGPEWVSVIYSDGRRTFYVDDVKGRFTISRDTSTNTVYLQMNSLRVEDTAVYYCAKGQAAGTFDSWGQGTLVTVSS | 0.05 0.09 1.07 -0.17 0.51 0.14 | 0.28 | 1 of 18 (2.20)
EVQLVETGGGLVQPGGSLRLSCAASGFSLNSYGISWVRQAPGKGPEWVSVIYSDGRRTFYADSVKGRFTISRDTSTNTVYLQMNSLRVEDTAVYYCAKGATAGTFDSWGQGTLVTVSS | 0.22 0.05 -0.14 -0.18 -0.16 -0.07 | -0.05 | 0 of 18
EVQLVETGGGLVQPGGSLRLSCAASGFSLNSYGISWVRQAPGKGPEWVSVIYSDGRRTFYGDSVKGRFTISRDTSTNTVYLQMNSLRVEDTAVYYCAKGQLAGTFDSWGQGTLVTVSS | 0.65 0.12 0.14 0.12 0.42 0.71 | 0.36 | 0 of 18
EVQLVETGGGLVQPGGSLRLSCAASGFSLNSYGISWVRQAPGKGPEWVSVIYSDGRRTFYGDSVKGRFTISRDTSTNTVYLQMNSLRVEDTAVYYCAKGRAAGTFDKWGQGTLVTVSS | 0.47 0.44 0.32 0.56 0.44 0.81 | 0.51 | 0 of 18
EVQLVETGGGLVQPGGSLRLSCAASGFSLNSYGISWVRQAPGKGPEWVSVIYSDGRRTFYADSVKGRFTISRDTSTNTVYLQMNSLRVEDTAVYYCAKGNAAGTFDRWGQGTLVTVSS | 0.36 0.13 0.41 0.23 0.30 0.45 | 0.32 | 0 of 18
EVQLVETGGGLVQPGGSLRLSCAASGFSLNSYGISWVRQAPGKGPEWVSVIYSDGRRTFYADSVKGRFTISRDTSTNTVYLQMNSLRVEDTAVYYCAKGKAAGTFDKWGQGTLVTVSS | 0.97 0.84 0.29 0.92 0.18 0.22 | 0.57 | 0 of 18
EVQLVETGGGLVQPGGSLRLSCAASGFTLNSYGISWVRQAPGKGPEWVSVIYADGRRTFYGDSVKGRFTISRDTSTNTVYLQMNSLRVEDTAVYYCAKGRAAGTFDAWGQGTLVTVSS | 1.29 0.65 0.63 0.55 0.31 1.16 | 0.77 | 0 of 18
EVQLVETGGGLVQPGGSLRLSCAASGFSLNSYGISWVRQAPGKGPEWVSVIYSDGRRTFYGDPVKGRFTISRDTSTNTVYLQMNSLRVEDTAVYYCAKGQTAGTFDSWGQGTLVTVSS | nd 0.45 2.10 nd 0.58 1.13 | 1.06 | 0 of 18
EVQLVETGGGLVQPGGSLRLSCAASGFSLNTYGISWVRQAPGKGPEWVSVIYSDGRRTFYADSVKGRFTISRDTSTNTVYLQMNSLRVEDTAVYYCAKGEAAGTFDSWGQGTLVTVSS | 1.27 0.47 0.59 0.41 0.36 0.75 | 0.64 | 0 of 18
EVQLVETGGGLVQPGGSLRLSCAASGFNLNSYGISWVRQAPGKGPEWVSVIYSDGRRTFYIDSVKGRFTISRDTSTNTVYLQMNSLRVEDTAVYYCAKGRTAGTFDSWGQGTLVTVSS | nd 0.66 0.01 -0.56 nd 0.61 | 0.18 | 0 of 18

The last 2 entries again:

{"VH": "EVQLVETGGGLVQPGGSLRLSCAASGFSLNTYGISWVRQAPGKGPEWVSVIYSDGRRTFYADSVKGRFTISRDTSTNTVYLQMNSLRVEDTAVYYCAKGEAAGTFDSWGQGTLVTVSS", "log10 Kd, replicates": "1.27 0.47 0.59 0.41 0.36 0.75", "log10 Kd (nM), mean": "0.64", "control signals": "0 of 18"}
{"VH": "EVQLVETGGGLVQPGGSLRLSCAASGFNLNSYGISWVRQAPGKGPEWVSVIYSDGRRTFYIDSVKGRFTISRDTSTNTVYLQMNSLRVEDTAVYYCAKGRTAGTFDSWGQGTLVTVSS", "log10 Kd, replicates": "nd 0.66 0.01 -0.56 nd 0.61", "log10 Kd (nM), mean": "0.18", "control signals": "0 of 18"}